Measured values published in article PMC11652881.

Columns and labels:
[1] = biological target: recombinant cardiac actin variant R312C (R312C-ACTC), as F-actin filaments (human); assay: TIRF microscopy of labelled tropomyosin binding along actin filaments; rhodamine phalloidin-labelled ACTC filaments held on bovine ventricular HMM (0.5 mg/ml) on a nitrocellulose-coated coverslip; Alexa-Tm added while recording at 10 frames per second; fluorescence along a filament normalised from 1 to 100 percent; elongation rate = slope of the binding curve from 0 to 15 s
[2] = biological target: recombinant cardiac actin variant R312H (R312H-ACTC), as F-actin filaments (human); assay: as above
[3] = biological target: recombinant cardiac actin variant R312C (R312C-ACTC), as F-actin filaments (human); assay: co-sedimentation; 7 uM F-actin with 0.1 to 2 uM tropomyosin in 100 mM KCl, 5 mM MgCl2, 20 mM Tris pH 8, 1 h at 25 C; 100,000 rpm 20 min (TLA100); Tm in the pellet by SDS-PAGE densitometry, normalised 0-100; fit to specific binding with Hill slope
[4] = biological target: recombinant cardiac actin variant R312H (R312H-ACTC), as F-actin filaments (human); assay: as above

Elongation Rate [1] [s⁻¹] | Elongation Rate [2] [s⁻¹] | Kd [3] [µM] | Kd [4] [µM] | Substance
1.2 | 3.4 | – | – | Alexa488-labeled tropomyosin (bovine ventricular tropomyosin modified on Cys-190) (from UniProt Q5KR49 1-284) (natural protein)
– | – | 0.505 | 0.555 | tropomyosin purified from bovine ventricular ether powder (from UniProt Q5KR49 1-284)
